Assay results from ChEMBL document CHEMBL1124992, “(Pyrimidinyloxy)acetic acids and pyrimidineacetic acids as a novel class of aldose reductase inhibitors” (J Med Chem, 1990).

What was measured:
[1] = target: Aldo-keto reductase family 1 member B1 (Bos taurus) (UniProt P16116); assay: In vitro inhibition of aldose reductase from the partially purified bovine lens at 10e-5 M concentration
In short: (§1)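 Bovine lens aldose reductase, partially purified, assayed spectrophotometrically following Hayman and Kinoshita. Each compound was tested at three concentrations, routinely in duplicate.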

[2] = target: Aldo-keto reductase family 1 member B1 (Bos taurus) (UniProt P16116); assay: In vitro inhibition of aldose reductase from the partially purified bovine lens at 10e-6 M concentration; in short: as §1
[3] = target: Aldo-keto reductase family 1 member B1 (Bos taurus) (UniProt P16116); assay: In vitro inhibition of aldose reductase from the partially purified bovine lens at 10e-7 M concentration; in short: as §1

Compound	inhibition [1] [%]	inhibition [2] [%]	inhibition [3] [%]
COc1ccc2c(C(=S)N(C)CC(=O)O)cccc2c1C(F)(F)F [TOLRESTAT]	98	–	–
CCCCCCSc1nc(C(C)(C)C)nc(OCC(=O)O)c1C#N	94	94	91
